Reference: patent US20230172930A1, “USE OF COMPLEMENT FACTOR D INHIBITORS ALONE OR IN COMBINATION WITH ANTI-C5 ANTIBODIES FOR TREATMENT OF PAROXYSMAL NOCTURNAL HEMOGLOBINURIA” (Alexion Pharmaceuticals, Inc., priority 2020, published 2023)
“And” between values parts separate entries of the source, which are not always exact repeats. Equal values may be shown once. Read-outs that look alike come from different tables or passages of the source.

How the values were obtained:
[1] = tested on: PNH patients with an inadequate response to eculizumab; experiment: Phase 2 open-label study of danicopan added to eculizumab: laboratory markers of PNH (Hgb, LDH, reticulocytes, bilirubin); type: in vivo, human
Protocol: All doses were taken approximately 15-30 minutes after completion of a meal or snack. Dose escalations, to a maximum of 200 mg three times a day, were based on safety and hemoglobin values and permitted at 4-week intervals through week 12 at 50 mg increments. If the patient had not already reached the 200 mg three times daily maximal dose by week 12, escalation was permitted if clinically indicated. […] Patients completing treatment with clinical benefit entered a long-term extension phase.
Descriptive statistics are provided for biochemical, quality-of-life measurements, and transfusion data. Continuous variables are summarized with mean, median, minimum and maximum values. Categorical variables, e.g., transfusion-independent, are summarized with counts and percentages. Missing values were not imputed.

patients with PNH [2] = details: eculizumab monotherapy, SHEPHERD trial; cited from earlier work
patients with PNH [3] = details: eculizumab monotherapy, TRIUMPH trial; cited from earlier work
[4] = tested on: PNH patients with an inadequate response to eculizumab; experiment: Phase 2 study: RBC transfusion needs (events, units, annualized rates); type: in vivo, human; details: 24 weeks prior to screening, on stable eculizumab
Protocol: Transfusion frequency and amount were evaluated via annualized rates and units, respectively. The average intensive rate of transfusion frequency before treatment was calculated by summing the number of transfusion events in the 52 weeks prior to Screening plus days from Screening to Day 1 of dosing from 10 patients and dividing this sum by the patients' total exposure times. The average intensive rate in the 24 weeks post-treatment was calculated with the same method. The ratio of these two intensive rates (post vs. pre) was used to quantify the treatment effect. Standard statistical analysis for comparing the two intensity rates (post- vs pre-treatment) was conducted.

B1: eculizumab (antibody)
heavy: QVQLVQSGAEVKKPGASVKVSCKASGYIFSNYWIQWVRQAPGQGLEWMGEILPGSGSTEYTENFKDRVTMTRDTSTSTVYMELSSLRSEDTAVYYCARYFFGSSPNWYFDVWGQGTLVTVSSASTKGPSVFPLAPCSRSTSESTAALGCLVKDYFPEPVTVSWNSGALTSGVHTFPAVLQSSGLYSLSSVVTVPSSNFGTQTYTCNVDHKPSNTKVDKTVERKCCVECPPCPAPPVAGPSVFLFPPKPKDTLMISRTPEVTCVVVDVSQEDPEVQFNWYVDGVEVHNAKTKPREEQFNSTYRVVSVLTVLHQDWLNGKEYKCKVSNKGLPSSIEKTISKAKGQPREPQVYTLPPSQEEMTKNQVSLTCLVKGFYPSDIAVEWESNGQPENNYKTTPPVLDSDGSFFLYSRLTVDKSRWQEGNVFSCSVMHEALHNHYTQKSLSLSLGK
light: DIQMTQSPSSLSASVGDRVTITCGASENIYGALNWYQQKPGKAPKLLIYGATNLADGVPSRFSGSGSGTDFTLTISSLQPEDFATYYCQNVLNTPLTFGQGTKVEIKRTVAAPSVFIFPPSDEQLKSGTASVVCLLNNFYPREAKVQWKVDNALQSGNSQESVTEQDSKDSTYSLSSTLTLSKADYEKHKVYACEVTHQGLSSPVTKSFNRGEC
[1]; Patient A (no transfusions, religious objections; hereditary elliptocytosis), on eculizumab before danicopan
  baseline Hgb: 5.0 g/dL and 5 g/dL
[1]; at entry, on stable eculizumab, before danicopan, 11 patients
  mean Hgb: 7.9 mg/dL
Patients with PNH [2]
  increase in FACIT-Fatigue score versus baseline: 12.2 points
Patients with PNH [3]
  increase in FACIT-Fatigue score versus baseline: 6.4 points
[4]
  mean RBC transfusions: 3.4
  mean units transfused: 5.8 units
